From publication PMC2941777 (Molecular pharmaceutics, 2009)

Tested on: UDP-glucuronosyltransferases (UGT), rat ileum microsomes
Assay: Glucuronidation of naringenin in rat ileum microsomes
Conditions: 10 μM naringenin, vs control

Compound: CN(C)C(=O)CCSC(SCCC(=O)O)c1cccc(/C=C/c2ccc3ccc(Cl)cc3n2)c1 (stereo not shown) [MK-571]
- effect on glucuronidation rates of naringenin, inhibitors used simultaneously: decreased significantly
